Patent US10882856B2 (BeiGene, Ltd., priority 2017, dated 2021)

The chains behind the UniProt entries cited, without tags or fusion partners.
UniProt P14902, whole entry: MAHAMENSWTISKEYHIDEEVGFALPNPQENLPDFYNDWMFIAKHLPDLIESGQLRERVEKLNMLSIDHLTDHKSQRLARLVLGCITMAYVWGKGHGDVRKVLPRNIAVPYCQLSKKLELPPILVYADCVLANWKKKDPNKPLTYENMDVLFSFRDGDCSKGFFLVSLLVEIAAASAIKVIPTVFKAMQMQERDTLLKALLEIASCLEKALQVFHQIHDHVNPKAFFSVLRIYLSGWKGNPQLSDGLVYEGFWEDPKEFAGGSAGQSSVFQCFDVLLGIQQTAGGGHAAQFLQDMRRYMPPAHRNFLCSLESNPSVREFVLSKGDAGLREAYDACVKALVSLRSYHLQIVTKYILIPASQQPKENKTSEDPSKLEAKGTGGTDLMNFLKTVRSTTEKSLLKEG
UniProt P48775, whole entry: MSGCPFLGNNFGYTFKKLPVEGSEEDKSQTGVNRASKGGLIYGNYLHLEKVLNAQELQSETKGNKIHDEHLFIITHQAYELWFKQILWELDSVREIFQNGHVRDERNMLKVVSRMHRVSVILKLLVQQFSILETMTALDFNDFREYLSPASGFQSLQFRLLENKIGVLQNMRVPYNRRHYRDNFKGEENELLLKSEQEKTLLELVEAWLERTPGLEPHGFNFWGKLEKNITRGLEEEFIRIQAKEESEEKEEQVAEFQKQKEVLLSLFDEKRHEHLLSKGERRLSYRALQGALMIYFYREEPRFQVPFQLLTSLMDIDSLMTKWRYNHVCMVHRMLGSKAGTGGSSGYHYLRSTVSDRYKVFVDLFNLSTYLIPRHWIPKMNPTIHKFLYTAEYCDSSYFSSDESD

Legend:
IDO1 [1] = target: T1, IDO1 (Homo sapiens, UniProt P14902); experiment: Hela cell-based IDO1 assay; conditions: read-out: Cell-Based EC50 Hela IDO1; Hela cells
Method in brief: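 HeLa cells were seeded at 8000 per well in 96-well plates in phenol red-free DMEM with 10% FBS. After 4 hours, DMSO-diluted compound dilutions were added with IFN-γ (final 100 ng/mL) and 0.4 mM L-Trp, and cells were kept 48 hours at 37 °C, 5% CO2. Supernatant was deproteinised with trichloroacetic acid, and kynurenine was measured at 480 nm after adding 2% 4-(dimethylamino)benzaldehyde. Potency came from four-parameter logistic fits in XLfit.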

TDO = TDO (Homo sapiens, UniProt P48775); experiment: TDO enzymatic assay; type: biochemical; conditions: read-out: Enzyme IC50 TDO
Method in brief: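 With 0.5 mM L-tryptophan (Km concentration), 100 nM of E. coli-purified, C-terminally His-tagged recombinant TDO was incubated for 1.5 hours under the IDO1 enzymatic conditions: ascorbic acid, methylene blue, catalase, and potassium phosphate pH 7.5 with BSA. The slope of N'-formylkynurenine absorbance, monitored continuously at 321 nm, served as activity. Remaining activity at increasing compound concentrations was used to calculate IC50.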

[2] = target: cellular TDO2 in HEK293-TDO2 cells (Homo sapiens, UniProt P48775); experiment: 293-TDO2 cell-based assay (Kyn colorimetric); conditions: read-out: Cell-Based EC50 293-TDO2, 48 hours of incubation
Protocol: The inhibitory activity of TDO2 inhibitors is determined by using a colorimetric reaction to measure Kyn generated from L-Trp (L-Tryptophon) oxidation by cellular TDO2 in HEK293-TDO2 cells stably transfected with a plasmid expression of Tryptophan 2,3-dioxygenase (for short, 293-TDO2).
HEK293 cells were obtained from the American Type Culture Collection and 293-TDO2 were recovered in 10% FBS-containing phenol red-free DMEM medium. Cells were plated onto a 96-well plate (100 μl/well) at 10000 cells per well and kept at 37° C. in a humidified incubator supplied with 5% CO2. 4 hours later, Compounds at different concentrations diluted in dimethylsulfoxide (DMSO) were added to plate. Cells were kept at 37° C. in a humidified incubator supplied with 5% CO2. After 48 hours of incubation, 100 μl supernatant from each well was removed to a new plate. The protein in the medium was precipitated with the addition of 8 μl 6N trichloroacetic acid. The plate was incubated at 60° C. for 30 minutes and then centrifugation at 2500 rpm for 10 minutes to remove sediments. 80 μl supernatants were carefully removed to a new clean plate and added with an equal volume of 2% 4-(Dimethylamino) benzaldehyde (D2004, sigma) dissolved in glacial acetic acid. The absorbance at 480 nm wavelength derived from Kyn was measured using a PHERAstar FS plate reader (BMG LABTECH). […]

IDO1 [3] = target: T1, IDO1; experiment: IDO1 enzymatic assay; type: biochemical; conditions: read-out: Enzyme IC50 IDO1
Method in brief: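 Compound was incubated with 50 nM His-tagged IDO1 from E. coli, 1.3 mM D-tryptophan, 5 mM L-ascorbic acid, methylene blue and 0.4 mg/mL catalase in 50 mM potassium phosphate pH 7.5, 0.1% BSA, at 24 °C for 1.5 hours. Activity was the slope of N'-formylkynurenine formation read continuously at 321 nm for 1 hour. IC50 was obtained from remaining activity versus compound concentration.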

Row | Structure (SMILES) | EC50 (IDO1 [1]) | IC50 (TDO) | EC50 [2] | IC50 (IDO1 [3])
1 | O=Cc1ccc(C2CCC(C(O)c3c(C4CC4)ccc4cncn34)CC2)cc1 (single isomer, unassigned) [D123a] | 0.278 µM | 13 µM | > 10 µM | 0.019 µM
2 | O=Cc1ccc(C2CCC(C(O)c3c(C4CC4)ccc4cncn34)CC2)cc1 (single isomer, unassigned) [D123b] | 9.5 µM | – | > 10 µM | > 10 µM
